pIC50: −log10 of the molar value.
Assays:
Cytochrome P450 3A4 [1] = molecular target: T1, Cytochrome P450 3A4 (Homo sapiens, UniProt P08684); experiment: Inhibition of CYP3A4 in human liver microsomes using midazolam as substrate assessed as suppression of 1'-hydroxymidazolam formation after 10 mins by LC-MS/MS analysis; assay type: ADME, tissue-based
Cytochrome P450 3A4 [2] = molecular target: T1, Cytochrome P450 3A4; experiment: Inhibition of CYP3A4 in human liver microsomes using testosterone as substrate assessed as suppression of 6beta-hydroxytestosterone formation after 30 mins by LC-MS/MS analysis; assay type: ADME, tissue-based

Sequences of proteins named here, by UniProt entry; tags and fusion partners are left off.
UniProt P08684, whole entry: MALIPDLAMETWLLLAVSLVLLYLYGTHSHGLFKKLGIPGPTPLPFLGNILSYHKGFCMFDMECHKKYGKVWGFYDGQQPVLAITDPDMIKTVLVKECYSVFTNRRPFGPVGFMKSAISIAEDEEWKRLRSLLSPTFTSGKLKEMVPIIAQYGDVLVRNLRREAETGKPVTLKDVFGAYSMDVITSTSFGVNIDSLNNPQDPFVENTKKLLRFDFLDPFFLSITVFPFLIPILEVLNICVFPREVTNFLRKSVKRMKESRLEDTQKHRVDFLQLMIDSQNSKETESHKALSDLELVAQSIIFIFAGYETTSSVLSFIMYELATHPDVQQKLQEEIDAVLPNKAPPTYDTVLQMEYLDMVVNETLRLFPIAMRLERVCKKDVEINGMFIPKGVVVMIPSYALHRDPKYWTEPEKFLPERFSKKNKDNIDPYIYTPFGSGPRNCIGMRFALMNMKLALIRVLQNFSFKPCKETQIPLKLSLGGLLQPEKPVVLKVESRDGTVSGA

Question: `CC1(C)[C@@H]2CC[C@@]1(C)[C@@H](NC(=O)[C@H](CC1CCCCC1)NS(=O)(=O)N[C@@H](CCCCN)C(=O)O)C2.Cl` was tested. Which pIC50 (Cytochrome P450 3A4 [1]) did it give?
Answer: Its pIC50 is 4.92.

Question: And the pIC50 (Cytochrome P450 3A4 [2])?
Answer: The pIC50 was < 4.52.
